This assay relates to cleavage of E-cad in rabbit EE. Kind of assay: Acid-activated cleavage of E-cad in Ussing-chambered rabbit EE, W-blot for CTF with C-terminal antibody 4A2C7. Conditions: caspase 3 inhibitor 50 μM. The format is cell-based. On the procedure: Further, the nature of the damage to E-cad was sought by exposing rabbit EE in U-chambers to luminal HCl, pH 1.1, for 30 min. […] Based on the size of the C-terminal fragment (CTF) of about 25 kD, referred to as CTF2, the site of cleavage was extracellular and close to the cell membrane, and so likely to be due to cleavage by a metalloprotease (MP) or γ-secretase, with cleavage by these two enzymes, often occurring sequentially (MP followed by γ-secretase), a process referred to as RIPping (72, 73).
Models of acid-activated cleavage of E-cad can be generated in two ways: 1) by luminal exposure to HCl, pH 1.1, for 30 min, and 2) by serosal exposure to HCl, pH 2.0, for 5 min. Serosal exposure is the most efficient means of cleavage because it mimics chronic acid exposure, recapitulating what occurs after luminal HCl, pH 1.1, breaks the barrier and acidifies the intercellular space and basolateral cell membranes. Following exposure, EE is washed in Ringer solution, pH 7.4, and placed in a Petri dish containing Dulbecco's Minimum Essential Medium (DMEM) with high glucose (4.5 g/l), supplemented with 2% FCS, 1 mM Na pyruvate, 2 mM/1 L-glutamine, 5 μg/ml insulin, 5 μg/ml transferrin, 0.01 μg/ml hydrocortisone and 0.01 μg/ml cholera toxin. […]

In the case of Z-DVED-FMK, the “acid-induced cleavage of E-cad” value was “lack of effect”.

The record behind these values is patent publication US8679766B2, “E-cadherin as a biomarker of gastroesophageal reflux disease” (The University of North Carolina at Chapel Hill, priority 2009, dated 2014).
